Values of other authors as cited in patent US9901650B2, “Methods for evaluating brain-wide paravascular pathway for waste clearance function and methods for treating neurodegenerative disorders based thereon” (University of Rochester, priority 2013, dated 2018).

Conditions: injected into the CSF; cited from earlier work

albumin: protein, molecular size 66.5 kD, literature CSF tracer
proportion draining to the cervical lymphatics via the cribriform plate: ~50%
